Values quoted from earlier work as cited in patent US12404348B2.

By UniProt entry, the sequences of proteins in these tests, tags left out.
UniProt O15530, whole entry: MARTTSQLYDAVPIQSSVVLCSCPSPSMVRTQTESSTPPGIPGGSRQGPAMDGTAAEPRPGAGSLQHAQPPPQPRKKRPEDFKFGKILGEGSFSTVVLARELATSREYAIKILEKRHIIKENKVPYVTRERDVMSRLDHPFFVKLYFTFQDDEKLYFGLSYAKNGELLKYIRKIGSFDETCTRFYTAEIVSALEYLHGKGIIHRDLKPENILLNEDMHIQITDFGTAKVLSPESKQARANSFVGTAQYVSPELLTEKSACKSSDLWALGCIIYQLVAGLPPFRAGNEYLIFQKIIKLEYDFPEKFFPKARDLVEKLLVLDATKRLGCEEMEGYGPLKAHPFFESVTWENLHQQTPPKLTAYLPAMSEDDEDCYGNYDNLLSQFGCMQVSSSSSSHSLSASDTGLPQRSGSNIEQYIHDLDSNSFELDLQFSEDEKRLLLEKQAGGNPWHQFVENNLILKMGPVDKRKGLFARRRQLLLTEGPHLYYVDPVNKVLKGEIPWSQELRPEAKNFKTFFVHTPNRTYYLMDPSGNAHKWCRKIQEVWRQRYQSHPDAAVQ

Molecular target: PDK1 (Homo sapiens, UniProt O15530)

AC50: 7.1 n.e.
Amax: 4.4 n.e.
SMILES: O=C(O)/C=C(\CCc1ccc(C(F)(F)F)cc1)c1ccccc1
